Values quoted from earlier work, collected in patent US20050220715A1, “Methods and compositions for improving drug safety” (Lotus Pharmaceutical Co., Ltd., priority 2004, published 2005).

Target: T1, progesterone receptors (Homo sapiens, UniProt P06401)
T1 sequence (P06401 1-933): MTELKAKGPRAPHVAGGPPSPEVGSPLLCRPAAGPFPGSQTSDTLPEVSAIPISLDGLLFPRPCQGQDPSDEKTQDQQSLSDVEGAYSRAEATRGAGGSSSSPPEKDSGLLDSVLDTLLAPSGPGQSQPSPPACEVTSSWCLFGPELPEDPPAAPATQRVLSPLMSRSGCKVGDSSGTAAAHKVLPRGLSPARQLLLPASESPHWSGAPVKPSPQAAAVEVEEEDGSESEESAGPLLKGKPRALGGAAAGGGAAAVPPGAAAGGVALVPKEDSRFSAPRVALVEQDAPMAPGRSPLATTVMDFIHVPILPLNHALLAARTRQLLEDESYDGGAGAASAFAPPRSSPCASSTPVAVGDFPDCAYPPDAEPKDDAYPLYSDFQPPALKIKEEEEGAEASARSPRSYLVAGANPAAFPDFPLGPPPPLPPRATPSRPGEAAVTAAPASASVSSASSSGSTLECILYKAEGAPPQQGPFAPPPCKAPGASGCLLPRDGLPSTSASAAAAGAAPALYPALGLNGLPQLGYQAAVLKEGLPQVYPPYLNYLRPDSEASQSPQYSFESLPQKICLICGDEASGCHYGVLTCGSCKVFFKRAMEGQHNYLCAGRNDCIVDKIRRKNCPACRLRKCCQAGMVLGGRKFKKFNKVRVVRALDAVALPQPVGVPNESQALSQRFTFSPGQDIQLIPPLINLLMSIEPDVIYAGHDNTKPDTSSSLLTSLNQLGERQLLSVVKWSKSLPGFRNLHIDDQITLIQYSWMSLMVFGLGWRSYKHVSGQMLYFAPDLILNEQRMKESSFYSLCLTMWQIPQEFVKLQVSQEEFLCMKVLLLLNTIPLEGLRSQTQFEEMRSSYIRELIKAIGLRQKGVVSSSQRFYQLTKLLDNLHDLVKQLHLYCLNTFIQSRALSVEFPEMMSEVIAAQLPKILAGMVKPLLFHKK
Conditions: cited from earlier work

CC#C[C@]1(O)CC[C@H]2[C@@H]3CCC4=CC(=O)CCC4=C3[C@@H](c3ccc(N(C)C)cc3)C[C@@]21C [Mifepristone, 17β-hydroxy-11β-(4-dimethylaminophenyl)-17α-(1-propynyl)-estra-4,9-dien-3-one]
affinity for the progesterone receptors: high affinity
